This assay has as its target 5-hydroxytryptamine receptor 6 (Homo sapiens, UniProt P50406). Nature of the assay: Antagonist activity at human recombinant 5HT6 receptor expressed in HEK293 cells assessed as inhibition of serotonin-induced cAMP production by LANCE assay relative to serotonin. The class given is functional, cell-based. In short, it runs like this:
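HEK-293 cells with a tetracycline-inducible (T-Rex) human 5-HT6 receptor, grown in DMEM/10% FBS with blasticidin S and zeocin and induced with tetracycline the day before. Medium was swapped for HBSS with 1 mM MgCl2, 1 mM CaCl2, IBMX and 5 mM HEPES, pH 7.4. Compounds (0.1% DMSO) were added 15 min at RT, then 10 nM serotonin for 30 min. cAMP read by LANCE; 2 independent experiments in duplicate.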

Chains of the proteins cited; added tags and fusions are not shown.
UniProt P50406, whole entry: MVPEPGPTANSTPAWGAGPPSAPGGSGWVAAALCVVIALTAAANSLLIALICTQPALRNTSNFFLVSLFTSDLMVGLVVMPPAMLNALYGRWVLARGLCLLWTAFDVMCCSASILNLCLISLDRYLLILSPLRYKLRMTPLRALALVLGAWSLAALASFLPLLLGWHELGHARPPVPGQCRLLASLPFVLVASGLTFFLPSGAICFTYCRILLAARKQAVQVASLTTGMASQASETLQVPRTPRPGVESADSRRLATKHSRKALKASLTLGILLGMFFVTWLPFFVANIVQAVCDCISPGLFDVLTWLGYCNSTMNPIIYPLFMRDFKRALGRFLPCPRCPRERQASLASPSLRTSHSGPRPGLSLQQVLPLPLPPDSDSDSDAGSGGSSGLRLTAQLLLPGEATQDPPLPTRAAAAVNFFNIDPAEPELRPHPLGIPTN

Molecules are shown by their SMILES.

`CN1CCc2c(c3cc(S(C)(=O)=O)ccc3n2C)C1.Cl`: the Imax amounted to 100%.
